Source: PubChem BioAssay AID493084 (National Center for Advancing Translational Sciences (NCATS), 2011)
This is a selection; strong and weak results do not stand in their true shares. Activity calls are given as the source filed them. Rule as the data show it: active = activation above about 30%; inactive = the rest.

The chains behind the UniProt entries cited, without tags or fusion partners. Where a name states a change or a piece, a line headed by the entry shows the natural chain unless it says otherwise.
UniProt P34981: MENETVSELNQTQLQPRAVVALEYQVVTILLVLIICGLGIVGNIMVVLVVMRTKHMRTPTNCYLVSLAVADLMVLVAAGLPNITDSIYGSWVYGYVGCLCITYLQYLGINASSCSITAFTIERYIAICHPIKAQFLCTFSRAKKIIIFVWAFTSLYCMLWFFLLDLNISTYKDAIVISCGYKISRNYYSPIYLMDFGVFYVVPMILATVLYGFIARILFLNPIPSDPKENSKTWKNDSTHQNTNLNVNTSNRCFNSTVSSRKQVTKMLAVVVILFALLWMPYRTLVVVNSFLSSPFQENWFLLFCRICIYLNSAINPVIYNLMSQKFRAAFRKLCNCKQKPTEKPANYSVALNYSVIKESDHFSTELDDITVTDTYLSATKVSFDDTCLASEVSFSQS

target: Thyrotropin-releasing hormone receptor (Homo sapiens) (UniProt P34981); assay: qHTS for Small Molecule Agonists and Allosteric Enhancers of Human TRH Receptor: Primary Screen for Agonists.; also: 0% is about no effect; settings: TRHR cells, calcium flux fluo-8, FDSS agonist mode; at 2 µM; active compounds read high
Source text: NIH Chemical Genomics Center [NCGC] NIH Molecular Libraries Probe Centers Network [MLPCN] MLPCN Grant: MH089816-01 Assay Submitter (PI): Marvin Gershengorn This project aims to identify small drug-like molecules that activate (agonists) the thyrotropin releasing hormone (TRH) receptor (TRHR) or enhance its TRH-stimulated activity (allosteric enhancers). TRHR, a drug-accessible cell surface receptor expressed in specific brain regions, and its ligand TRH have been implicated in several central nervous system disorders, including depression and anxiety. Small molecule TRHR agonists or allosteric enhancers that are metabolically stable and able to cross the blood-brain barrier might serve as probes to elucidate the roles of brain TRH receptors in animal models, and might be valuable as lead compounds for the development of drugs to treat patients with central nervous system disorders. Upon TRHR-Gq activation in TRHR cells, intracellular calcium is released from stores in the endoplasmic reticulum. […] This primary screen measures compound-induced activation of calcium release.
For the HTS assay freshly prepared cells are plated at a density of 2000/well in 3 ul of complete DMEM medium containing 10% serum in 1536-well plates and cultured over night at 37 C in a humidified incubator with 5% CO2. The next day, 2 ul of a no wash calcium dye (ABD Bioquest) was added to the cells and plates were incubated at room temperature for 1 hour. For the assay, assay plates were loaded into the FDSS kinetic plate reader. A 10 cycle (1 second/cycle) baseline measurement is taken and then the FDSS online 1536 pintool delivers 23 nl of compound library (as well as TRH controls) to the plate. The plate is measured for kinetically at 1 cycle/sec for 180 seconds and is considered to be the agonist portion of the assay (eg, compounds which activate a positive calcium response during this portion are flagged as potential agonists). Following the 180 second read, 1 ul of either an EC20 (positive modulation assay) is delivered by an onboard pipette head. Measurements are taken kinetically for an additional 180 seconds. TRHR FDSS Screening Protocol 1. Reagent, 3 uL 2000 cells/well 1536 TC treated Black plate in media containing 10% FCS 2. Time, 18 hours, 33.5C 5% CO2 (cells grown at 37C) 3. Reagent, 2 uL ABD fluo-8 Ca dye 4. Time, 30 min-1.5hrs hours, Room temp (6 plates/batch) 5. Detector, EX 480/EM 530C, FDSS 10 cycles baseline (1sec/cycle) 6. Compound, 23 nL of stock solution from library 7. Detector, EX 480/EM 530C, FDSS […] (1sec/cycle) Agonist mode 8. Compound, 1 ul EC20 of TRH made up in HEPES HBSS, 10 nM final 9. Detector, EX 480/EM 530C, FDSS 100 cycles (1sec/cycle) Potentiator mode

Row | SMILES | activation
1 | O=[N+]([O-])c1cc([N+](=O)[O-])c(-c2ccn[nH]2)s1 | inactive: 0.0002%
2 | CCN(CC)C(=S)SC(NC=O)C(Cl)(Cl)Cl (stereo not given) | inactive: 0.184%
3 | CC(C)NC(=O)NP(=O)(Oc1ccccc1)Oc1ccccc1 | inactive: -0.232%
4 | ClCCSc1nnc(-c2cccnc2)o1 | inactive: 0.882%
5 | CC(C)c1ccc(OP(=O)(Nc2ccccn2)Oc2ccccc2F)cc1 (stereo not given) | inactive: 0.027%
6 | Cc1ccc(OP(=O)(Nc2ccc([N+](=O)[O-])cn2)Oc2ccc(C)cc2)cc1 | inactive: 0.985%
7 | Cc1ccc2nc3c(c(C)c2c1)CC(C(Cl)Cl)S3 (stereo not given) | inactive: -0.596%
8 | COc1cc(C(=O)NCC2(N3CCOCC3)CCCCC2)ccc1OCC(C)C | inactive: -0.514%
9 | O=[As](O)(c1ccc(O)cc1)c1ccccc1O | inactive: 0.461%
10 | C[As](=O)(O)c1cccc(C(=O)O)c1 | inactive: -0.464%
11 | COc1ccc(N/C(=N/P(=O)(N2CCOCC2)N2CCOCC2)N2CCOCC2)cc1 | inactive: 0.677%
12 | COc1cc(I)ccc1[As](=O)(O)O | inactive: 0.607%
13 | COc1ccc2nc(NP(=O)(c3ccccc3)c3ccccc3)sc2c1 | inactive: -1.62%
14 | Cc1c2c(nc3ccccc13)SC(C(Cl)Cl)C2 (stereo not given) | inactive: 1.89%
15 | Cc1cc(=O)[nH]c(N[N+](=O)[O-])n1 | inactive: 0.191%
16 | O=C(OC1CN2CCC1CC2)C12CC3CC(CC(C3)C1)C2 (stereo not given) | inactive: 1.72%
17 | CCC(C)N(CC(C)C)C(=S)SC(NC(C)=O)C(Cl)(Cl)Cl (stereo not given) | inactive: -0.448%
18 | CCOP(=O)(Nc1cccc2cccnc12)OCC | inactive: 0.621%
19 | O=C(OC1CN2CCC1CC2)c1cccc([N+](=O)[O-])c1 (stereo not given) | inactive: 0.118%
20 | CCOC(=O)c1ccc(NC(=O)C(C)(CCl)SC)cc1 (stereo not given) | inactive: 0.58%
21 | O=C(Nc1ccncc1[N+](=O)[O-])c1ccc([N+](=O)[O-])cc1[N+](=O)[O-] | inactive: 0.695%
22 | O=C(COc1ccccc1)OC1CN2CCC1CC2 (stereo not given) | inactive: -0.0573%
23 | COP1(=S)c2c(C)nn(CCC#N)c2N=C(c2ccc(F)cc2)N1C (stereo not given) | inactive: 0.2%
24 | O=P(Nc1ccccn1)(c1cccc2ccccc12)c1cccc2ccccc12 | inactive: 2.27%
25 | Cc1cc(SC(NC=O)C(Cl)(Cl)Cl)ncn1 (stereo not given) | inactive: 0.622%

Row | SMILES | activation
26 | O=[N+]([O-])c1ccc(Nc2ccc(Oc3ccc([N+](=O)[O-])cc3[N+](=O)[O-])cc2)c([N+](=O)[O-])c1 | inactive: 0.412%
27 | CCOC(=O)Nc1cccc([As](=O)(O)O)c1 | inactive: -0.903%
28 | Cc1cc(SC(NC(=O)c2ccccc2)C(Cl)(Cl)Cl)nc(C(C)C)n1 (stereo not given) | inactive: 0.521%
29 | CCCCOc1ccc(C(=O)NCC2(N3CCCCC3)CCCCC2)cc1OC | active: 30.6%
30 | CCOC(=O)Nc1ccc([As](=O)(O)O)c(O)c1 | inactive: -0.972%
31 | Nc1cccc([As](=O)(O)c2ccccc2)c1 | inactive: 0.405%
32 | O=P1(Nc2ccc(Br)cn2)COc2ccccc2OC1 | inactive: 0.143%
33 | NS(=O)(=O)c1cccc(NC(=O)COC(=O)C(O)(c2ccccc2)c2ccccc2)c1 | inactive: 0.241%
34 | Cc1ccc(OCC(=O)OC2CN3CCC2CC3)cc1 (stereo not given) | inactive: 0.391%
35 | O=[As](O)(c1cccs1)c1cccs1 | inactive: -1.99%
36 | O=P1(Nc2ncccn2)COc2ccccc2OC1 | inactive: -1.81%
37 | CN(C)C1(CNC(=O)c2ccc(S(C)(=O)=O)cc2)CCCCC1 | inactive: 1.91%
38 | O=C(/C=C/c1ccccc1)OC1CN2CCC1CC2 (stereo not given) | inactive: 2.18%
39 | CC1CCC(C(C)C)C(OP(=O)(Nc2ccccn2)c2ccccc2)C1 (stereo not given) | inactive: 1.03%
40 | Cc1ccc(C(=O)OC2CN3CCC2CC3)cc1 (stereo not given) | inactive: 1.45%
41 | Cc1nn(-c2ccccc2)c2c1P(=O)(N1CCOCC1)N(C)C(c1ccccc1)=N2 (stereo not given) | inactive: -0.358%
42 | CC(C)/C=N\N=C(\N)N[N+](=O)[O-] | inactive: 0.512%
43 | CN(C(=O)Cc1ccc(Cl)c(Cl)c1)[C@@H]1CCCC[C@H]1N1CCCC1 | inactive: 0.434%
44 | O=[As](O)(c1ccccc1Br)c1ccccc1Br | inactive: 0.591%
45 | COc1ccccc1CNC(=O)COC(=O)C(O)(c1ccccc1)c1ccccc1 | inactive: -0.693%
46 | CC(C)(C)C(=O)NC(Sc1ncccn1)C(Cl)(Cl)Cl (stereo not given) | inactive: 0.232%
47 | Clc1n[nH]nc1-c1nn[nH][15n]1 | inactive: 0.2%
48 | CCOP(=O)(NC(=NC(C)c1ccccc1)NC(C)c1ccccc1)OCC (stereo not given) | inactive: 0.898%
49 | O=P1(Nc2ccccn2)COc2ccccc2OC1 | inactive: 0.81%
50 | CCC1=CC2Cc3nc4ccc(Cl)cc4c(N)c3C(C1)C2 (stereo not given) | inactive: 0.784%

Row | SMILES | activation
51 | CCOP(=O)(Nc1ccc(C)cn1)OCC | inactive: 0.917%
52 | CCOP(=O)(Nc1cccc2ccccc12)OCC | inactive: 0.16%
53 | COc1cc(C2NCCC3(OCCO3)C2(C)C)cc(OC)c1OC (stereo not given) | inactive: -0.129%
54 | Cc1ccc(NCCc2c([N+](=O)[O-])cc([N+](=O)[O-])cc2[N+](=O)[O-])cc1 | inactive: 0.246%
55 | Nc1cccc2c([As](=O)(O)O)cccc12 | inactive: 21.6%
56 | CCCOP(=S)(Nc1nc(N)cc(=O)[nH]1)OCCC | inactive: -1.7%
57 | O=[As](O)(c1cccc(O)c1)c1cccc(O)c1 | inactive: 0.22%
58 | Cc1cccc(OCC(=O)OC2CN3CCC2CC3)c1 (stereo not given) | inactive: -0.363%
59 | O=C(OC1CN2CCC1CC2)c1ccc(Cl)cc1 (stereo not given) | inactive: 0.946%
60 | CS(=O)(=O)c1ccc(Cl)c(NC(=O)COC(=O)C(O)(c2ccccc2)c2ccccc2)c1 | inactive: -0.896%
61 | COc1cc(C(=O)NCC2(N3CCOCC3)CCCCC2)cc(Cl)c1OC(C)C | inactive: -0.196%
62 | O=[As](O)(O)c1cccnc1 | inactive: -0.754%
63 | CCOP1(=S)c2c(C)nn(CCC#N)c2N=C(c2ccc(F)cc2)N1C (stereo not given) | inactive: 0.21%
64 | CN(C(=O)Cc1ccccc1)[C@@H]1CC[C@]2(CCCO2)C[C@H]1N1CCCC1 | inactive: -0.328%
65 | N#CCCN(C(=O)COC(=O)C(O)(c1ccccc1)c1ccccc1)c1ccc(F)cc1 | inactive: 0.083%
66 | O=[N+]([O-])c1ccc2c(c1)nnn2O | inactive: 0.067%
67 | NC(=O)Nc1ccc([As](=O)(O)O)cc1 | inactive: 0.112%
68 | Nc1ccccc1[As](=O)(O)c1ccccc1 | inactive: 0.579%
69 | O=C(O)COc1ccc([As](=O)(O)O)cc1[N+](=O)[O-] | inactive: 0.507%
70 | O=P(Nc1nccs1)(c1ccccc1)c1nc2ccccc2s1 (stereo not given) | inactive: 0.218%
71 | O=P(Nc1nccs1)(Oc1ccccc1)Oc1ccccc1 | inactive: -0.368%
72 | CCOP1(=S)c2c(C)nn(CCC#N)c2N=C(c2ccccc2F)N1C (stereo not given) | inactive: 0.244%
73 | CS(=O)(=O)c1cc([N+](=O)[O-])c2no[n+]([O-])c2c1 | inactive: 7.49%
74 | CN(C)C(=O)Oc1noc2ccccc12 | inactive: 0.357%
75 | O=c1c2cc([N+](=O)[O-])ccc2[nH]c2c([N+](=O)[O-])cc([N+](=O)[O-])cc12 | inactive: 11.2%

Row | SMILES | activation
76 | Cc1ccccc1OP(=O)(Nc1ccccn1)Oc1ccccc1C | inactive: 0.473%
77 | CCC(=O)N1C2C3N(C(=O)CC)C1C1N(C(=O)CC)C(C(N1C(=O)CC)N3C(=O)CC)N2C(=O)CC | inactive: 0.113%
78 | O=C(OC1CN2CCC1CC2)c1ccccc1 (stereo not given) | inactive: -0.293%
79 | CC(=O)NC(SC(=S)N(CC(C)C)CC(C)C)C(Cl)(Cl)Cl (stereo not given) | inactive: 1.45%
80 | Cc1ccc(OP(=O)(Nc2ccccn2)Oc2ccc(C)cc2)cc1 | inactive: -0.645%
81 | COC(=O)c1cc2c(s1)N=C(c1ccccc1)N(C)P2(=O)N1CCOCC1 (stereo not given) | inactive: 0.0789%
82 | Cc1ccc(NP(=O)(Oc2cccc(C)c2)Oc2cccc(C)c2)nc1 | inactive: 1.18%
83 | CCOC(=O)NC(Sc1ccccc1)C(Cl)(Cl)Cl (stereo not given) | inactive: -0.19%
84 | c1ccc(-c2nn[nH]n2)c(-c2nn[nH]n2)c1 | inactive: 0.26%
85 | CCNC(=S)/N=C(\N)N[N+](=O)[O-] | inactive: 0.127%
86 | O=C(NC1CCS(=O)(=O)C1)NP(=S)(Oc1ccccc1)Oc1ccccc1 (stereo not given) | inactive: 0.679%
87 | CC(=O)Nc1ccc(Oc2c([N+](=O)[O-])cc([N+](=O)[O-])cc2[N+](=O)[O-])cc1 | inactive: -0.173%
88 | CC(=O)Nc1ccc([As](=O)(O)O)c(O)c1 | inactive: 0.429%
89 | C[C@@H]1C=CCP(=O)(Oc2ccccc2)O1 (stereo not given in full) | inactive: 0.325%
90 | C[C@H]1OP(=O)(Oc2ccccc2)C[C@@H]2O[C@@H]21 (stereo not given in full) | inactive: -0.258%
91 | Cc1ccccc1CN(C)C(=O)COC(=O)C(O)(c1ccccc1)c1ccccc1 | inactive: 0.193%
92 | CC(=O)c1ccc(N2CC2c2ccncc2)cc1 (stereo not given) | inactive: 1.39%
93 | CC(C)(C)C(=O)NC(Sc1ccccc1)C(Cl)(Cl)Cl (stereo not given) | inactive: 0.255%
94 | O=P1(Nc2nc3ccc(Cl)cc3s2)COc2ccccc2O1 (stereo not given) | inactive: 0.245%
95 | c1nnnn1CCn1cnnn1 | inactive: 0.583%
96 | CC(C)C(=O)NC(Sc1ccccc1)C(Cl)(Cl)Cl (stereo not given) | inactive: -0.648%
97 | O=P(Nc1nccs1)(c1ccccc1)c1ccccc1 | inactive: 0.161%
98 | O=C(OC1CN2CCC1CC2)c1cccc(Cl)c1 (stereo not given) | inactive: 1.5%
99 | Nc1ccc([As](=O)(O)c2ccc([N+](=O)[O-])cc2)cc1 | inactive: 0.503%
100 | C(Cc1nn[nH]n1)Cc1nn[nH]n1 | inactive: 0.286%
